Literature values as cited in patent publication US9096606B2, “Quarternized buprenorphine analogs” (dated 2015).

By UniProt entry, the sequences of proteins in these tests, tags left out. Where a name states a change or a piece, a line headed by the entry shows the natural chain unless it says otherwise.
UniProt P41146: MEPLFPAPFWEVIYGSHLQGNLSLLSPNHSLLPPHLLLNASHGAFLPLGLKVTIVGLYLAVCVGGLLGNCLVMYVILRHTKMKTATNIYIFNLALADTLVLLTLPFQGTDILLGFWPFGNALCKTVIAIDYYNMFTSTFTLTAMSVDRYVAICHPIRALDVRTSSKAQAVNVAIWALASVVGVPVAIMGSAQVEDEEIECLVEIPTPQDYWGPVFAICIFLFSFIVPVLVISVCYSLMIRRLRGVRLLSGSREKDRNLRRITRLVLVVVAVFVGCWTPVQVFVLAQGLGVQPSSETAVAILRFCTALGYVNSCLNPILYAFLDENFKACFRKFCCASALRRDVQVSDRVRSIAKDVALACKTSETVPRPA

Target: ORL-1 (Homo sapiens (Human), UniProt P41146)
Settings: read-out: IC50 (at least partial agonist for ORL-1); S. Wnendt et al., Molec. Pharmacol. 1999

7-benzylidenenaltrexone
IC50: 10 µM
